# Literature values, collected in patent US20060205037A1, “Modified transferrin fusion proteins” (priority 2003, published 2006).
# Settings: in vivo; cited from earlier work
substance,measurement,value
exendin-4 [reference compound],t1/2,2 to 4 h
